Assay results taken from publication PMC6373530 (Pharmaceutical Research, 2019).

Molecular target: trastuzumab (huIgG1, anti-HER2 therapeutic antibody) (human)
Assay: SPR; IgG capturing set-up, Biacore T200: HER2 extracellular domain amine-coupled on a CM5 chip, HER2-specific IgG captured (about 1000 RU), soluble dimeric FcγR flowed at 600, 200 and 66.7 nM, PBS-P+ pH 7.4; qualitative, with Interaction Map analysis
Settings: both partners purified

- fold affinity against huFcγRIIb: 3 fold
B1: soluble poFcγRIIb (dimeric IgG Fc fusion of the extracellular domain) (Fc fusion)
chain: VLPKAEVKLQPAWINVLQEDSVTLTCQGDHDPGNTTTQWFHNGNFTWTENQPSFSFKARRASSGHYRCQTAYSSLSDPVHLDVISDWLLLQTSSLVFQEGEPILLRCHSWRNKPLHKVAFFQNGKSKKFSYVDSNFSIPQANQSHSGEYHCTGFIGKMSYSSQSVNITVQGSSLNNLL
modifications: biotin on the Avi-tag (BirA) in the FcγR capturing set-up only
